# Laboratory results from BindingDB's records for doi:10.1073/pnas.90.21.10365 (Merck Research Laboratories, 1993).
# Protein sequences, listed by entry. Tags and fused reporters are not part of them.
# UniProt P0DMS8, whole entry: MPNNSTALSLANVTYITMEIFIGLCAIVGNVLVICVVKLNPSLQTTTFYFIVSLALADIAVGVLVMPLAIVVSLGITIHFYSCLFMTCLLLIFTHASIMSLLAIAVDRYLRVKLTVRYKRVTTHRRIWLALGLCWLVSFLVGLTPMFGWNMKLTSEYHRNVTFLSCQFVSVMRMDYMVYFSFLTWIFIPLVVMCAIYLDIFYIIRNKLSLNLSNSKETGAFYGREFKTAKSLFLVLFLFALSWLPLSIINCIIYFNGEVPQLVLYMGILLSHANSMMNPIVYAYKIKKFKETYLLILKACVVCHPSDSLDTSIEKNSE
# Values joined by “and” are separate entries in the source; they are usually repeats but may differ in a detail not shown here. Equal values may be shown once.
# Target: Adenosine receptor A3 (Homo sapiens, UniProt P0DMS8)
compound,measurement,value
CC(Cc1ccccc1)Nc1ncnc2c1ncn2C1OC(CO)C(O)C1O (stereo unspecified) [R-N6-(2-phenylisopropyl) adenosine],Ki,33.9 nM and 324 nM
